The list shows a part of the results, in another mix than the full data. Some salts or complexes appear as unconnected parts, following the source record. The source made the active and inactive calls.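 The calls were made as follows: active = compounds whose inhibition of the agonist-driven luminescence signal at 20 µM reaches about 50% (limit read from the data); inactive = the rest.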
These molecules were tested against C-C chemokine receptor type 6 (Homo sapiens) (UniProt P51684) (assay: blockers of CCL20-driven beta-arrestin recruitment to CCR6 – cell-based, CHO-K1, luminescence, uHTS, primary screen (AID 493098;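 also: cells stimulated with CCL20 at 14 nM final; plate controls were DMSO with CCL20 for no effect and DMSO without agonist for full effect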)). Conditions: CHO-K1 CCR6 PathHunter beta-arrestin, CCL20-stimulated, at 20 µM, hits give high values.

By UniProt entry, the sequences of proteins in these tests, tags left out.
UniProt P51684, whole entry: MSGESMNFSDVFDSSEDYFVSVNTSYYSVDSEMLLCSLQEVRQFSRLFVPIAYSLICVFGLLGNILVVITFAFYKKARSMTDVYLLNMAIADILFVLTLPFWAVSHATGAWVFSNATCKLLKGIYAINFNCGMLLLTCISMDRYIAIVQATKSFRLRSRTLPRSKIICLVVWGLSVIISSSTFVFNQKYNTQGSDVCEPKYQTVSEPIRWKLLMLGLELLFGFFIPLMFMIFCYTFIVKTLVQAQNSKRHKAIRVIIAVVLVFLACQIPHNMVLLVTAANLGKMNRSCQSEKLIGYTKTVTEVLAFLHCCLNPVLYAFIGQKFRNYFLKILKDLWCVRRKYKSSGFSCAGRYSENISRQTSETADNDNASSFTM

Structure (SMILES)	inhibition
O=[N+]([O-])c1cc([N+](=O)[O-])c(Nc2ccccn2)c([N+](=O)[O-])c1	inactive: 48.6%
CCc1ccc(OP(C)(=O)O)cc1	inactive: -7.02%
CP(=O)(Nc1ccccn1)Oc1ccccc1 (configuration not stated)	inactive: 1.27%
COc1ccccc1OP(C)(=O)Nc1ccc(C)cc1C (configuration not stated)	inactive: 6.4%
COc1ccccc1OP(C)(=O)Nc1ccc(Br)cc1 (configuration not stated)	inactive: 5.56%
CN(C)CCOC(=O)C(O)(c1ccccc1)C1CCCC1 (configuration not stated)	inactive: -1.48%
COc1ccc(OP(C)(=O)Nc2ccccn2)cc1 (configuration not stated)	inactive: -4.8%
CP(=O)(Nc1ccc(Cl)cc1Cl)Oc1ccccc1 (configuration not stated)	inactive: 18.5%
CCCCCCCCCCCCCCCC1C[N+](C)(C)CCOP(C)(=O)O1 (configuration not stated)	inactive: 19.1%
CP(=O)(OCCOc1ccccc1)OCCOc1ccccc1	inactive: 7.66%
O=C1C(O)=C([N+](=O)[O-])C(=O)C(O)=C1[N+](=O)[O-]	inactive: 0.78%
Cc1cc(C)cc(OP(C)(=O)Nc2cccc(C(F)(F)F)c2)c1 (configuration not stated)	inactive: 5.73%
COc1ccc(OP(C)(=O)Nc2ccccc2Br)cc1 (configuration not stated)	inactive: 6.55%
COc1ccccc1OP(C)(=O)Nc1ccc(C)c(C)c1 (configuration not stated)	inactive: -0.51%
CCN(CC)CCCOC(=O)C(O)(c1ccccc1)C1CCCCC1 (configuration not stated)	inactive: 6.24%
Cc1c([N+](=O)[O-])cc([N+](=O)[O-])c(Br)c1[N+](=O)[O-]	inactive: 18.7%
O=[N+]([O-])c1cc([N+](=O)[O-])c(OC2CCCCC2O)c([N+](=O)[O-])c1 (configuration not stated)	inactive: 19%
CCCCCOc1ccc(NP(C)(=O)Oc2ccc(Cl)cc2Cl)cc1 (configuration not stated)	inactive: 15%
CP(=O)(Nc1ccccc1)Oc1ccc(F)cc1 (configuration not stated)	inactive: 5.71%

Structure (SMILES)	inhibition
COc1ccc(OP(C)(=O)Nc2ccc(SC(F)(F)F)cc2)cc1 (configuration not stated)	inactive: -2.65%
CCOC(=O)c1ccc(NP(C)(=O)Oc2ccc(F)cc2)cc1 (configuration not stated)	inactive: 6.43%
O=C(OCCN1CCN(CCOCc2ccccc2)CC1)C(O)(c1ccccc1)c1ccccc1	inactive: 9.81%
O=C(OC1CN2CCC1CC2)c1ccc([N+](=O)[O-])cc1 (configuration not stated)	inactive: -9.04%
COc1ccc2c(c1O)-c1c(O)c(OC)cc3c1[C@H](C2)[N+](C)(C)CC3.O=[N+]([O-])c1cc([N+](=O)[O-])c([O-])c([N+](=O)[O-])c1[O-]	inactive: 15.3%
CC(C)c1ccc(OP(C)(=O)Nc2ccc(SC(F)(F)F)cc2)cc1 (configuration not stated)	inactive: 8.06%
CP(=O)(Nc1ccccc1F)Oc1ccccc1 (configuration not stated)	inactive: 4.88%
CP(=O)(Nc1ccc2c(c1)OCCO2)Oc1ccccc1 (configuration not stated)	inactive: -3.22%
Cc1ccccc1NP(C)(=O)Nc1ccccc1C	inactive: -3.33%
CP(=O)(Nc1ccc(SC(F)(F)F)cc1)Oc1ccc(F)cc1 (configuration not stated)	inactive: 4.93%
CCOP(C)(=S)SCC(=O)NC(C)(CC)C(=O)O (configuration not stated)	inactive: 6.88%
Cc1cc(-c2cccc3ccccc23)c(C)cn1.O=[N+]([O-])c1cc([N+](=O)[O-])c(O)c([N+](=O)[O-])c1	inactive: 34%
O=[N+]([O-])c1cc([N+](=O)[O-])c(NCC2CCS(=O)(=O)C2)c([N+](=O)[O-])c1 (configuration not stated)	inactive: 1.58%
O=[N+]([O-])c1ccc(OP2(=O)COCCO2)cc1 (configuration not stated)	inactive: -7.82%
Cc1c(C(c2ccc3c(c2)OCO3)c2c(C)n(C)n(-c3ccccc3)c2=O)c(=O)n(-c2ccccc2)n1C.O=[N+]([O-])c1cc([N+](=O)[O-])c(O)c([N+](=O)[O-])c1	inactive: 0.61%
COc1ccc(OP(C)(=O)Nc2cccc(Br)c2)cc1 (configuration not stated)	inactive: 7.32%
COc1ccc(NP(C)(=O)Oc2ccccc2OC)cc1 (configuration not stated)	inactive: 6.99%
CN(C)CCOC(=O)C(O)(c1ccccc1)C1CCCCC1 (configuration not stated)	inactive: -18.6%

Reference: PubChem BioAssay AID493098 (Sanford-Burnham Center for Chemical Genomics, 2011)
